The target of this assay is T1, Histone deacetylase 8 (Schistosoma mansoni, UniProt A5H660).
T1 sequence (A5H660 whole entry): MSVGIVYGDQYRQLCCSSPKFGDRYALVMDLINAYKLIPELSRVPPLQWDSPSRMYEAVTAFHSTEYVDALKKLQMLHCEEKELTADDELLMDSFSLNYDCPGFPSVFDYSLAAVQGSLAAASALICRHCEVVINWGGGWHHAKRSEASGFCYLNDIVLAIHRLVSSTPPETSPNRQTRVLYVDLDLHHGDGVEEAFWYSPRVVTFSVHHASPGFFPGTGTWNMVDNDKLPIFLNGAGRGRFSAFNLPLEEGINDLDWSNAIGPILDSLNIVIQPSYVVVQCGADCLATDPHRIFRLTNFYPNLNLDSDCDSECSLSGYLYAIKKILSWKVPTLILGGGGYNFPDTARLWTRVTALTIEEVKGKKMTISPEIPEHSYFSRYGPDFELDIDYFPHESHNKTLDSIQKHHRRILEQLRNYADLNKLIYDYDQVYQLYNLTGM
Nature of the assay: Inhibition of Schistosoma mansoni KDAC8 using (FAM)-labeled peptide as substrate after 60 mins by microfluidic assay.

In ChEMBL document CHEMBL4014283, “Structural insights of SmKDAC8 inhibitors: Targeting Schistosoma epigenetics through a combined structure-based 3D QSAR, in vitro and synthesis strategy” (Bioorg Med Chem, 2017) one finds IC50 data, which are given here for one molecule.

Structures are written as SMILES. Where only a bound is given, the exact number is not on record here.

By IC50 is commonly meant the midpoint of a concentration-inhibition curve. Higher therefore signals lower potency.

On to `O=C(O)CCCCN1C(=O)[C@H](CCC(=O)NC(c2ccccc2)(c2ccccc2)c2ccccc2)N=C(c2ccccc2)c2ccccc21`, for which the IC50 was above 30 µM.
